Data: publication PMC3767463 (Journal of the American Chemical Society, 2013)

What was measured:
p53 level = assay type: cell-based, human; settings: read-out: EC50, upregulation of p53; LNCaP; MCo-PMI 0–100 μM, 48 h; western blot
Hdm2 level = assay: Western blot of LNCaP cell extracts; assay type: cell-based, human; settings: read-out: EC50, upregulation of Hdm2, MCo-PMI 0–100 μM, 48 h
p21 level = assay: Western blot of LNCaP cell extracts; assay type: cell-based, human; settings: read-out: EC50, upregulation of p21, MCo-PMI 0–100 μM, 48 h
HdmX level = assay: Western blot of LNCaP cell extracts; assay type: cell-based, human; settings: read-out: EC50, down regulation of HdmX, MCo-PMI 0–100 μM, 48 h
HCT116 p53+/+ cells = settings: read-out: EC50, cell viability; HCT116 (wild-type p53); 48 h; MTT; triplicate

Q: CC[C@H](C)[C@@H]1NC(=O)[C@@H]2CSSC[C@@H]3NC(=O)[C@H](C(C)C)NC(=O)CNC(=O)CNC(=O)[C@H](C)NC(=O)[C@H](CO)NC(=O)[C@H](CC(C)C)NC(=O)[C@H](CC(C)C)NC(=O)[C@H](CC(N)=O)NC(=O)[C@H](Cc4c[nH]c5ccccc45)NC(=O)[C@H](Cc4ccc(O)cc4)NC(=O)[C@H](CCC(=O)O)NC(=O)[C@H](C)NC(=O)[C@H](Cc4ccccc4)NC(=O)[C@H](CO)NC(=O)[C@H]([C@@H](C)O)NC(=O)[C@@H]4CCCN4C(=O)[C@H](C)NC(=O)[C@H](CCCCN)NC(=O)[C@H](CO)NC(=O)[C@H](C)NC(=O)CNC(=O)[C@H](CO)NC(=O)CNC(=O)[C@H](CO)NC(=O)CNC(=O)[C@@H]4CSSC[C@H](NC(=O)[C@H](CC(=O)O)NC(=O)[C@H](CO)NC(=O)[C@H](CC(=O)O)NC(=O)[C@H](CCCNC(=N)N)NC(=O)[C@H](CCCNC(=N)N)NC(=O)[C@H](CSSC[C@H](NC1=O)C(=O)N[C@@H](CCCNC(=N)N)C(=O)NCC(=O)N[C@@H](CC(N)=O)C(=O)NCC(=O)N[C@@H](Cc1ccc(O)cc1)C(=O)N4)NC(=O)[C@H](CCCNC(=N)N)NC(=O)[C@H](CCC(N)=O)NC(=O)[C@H](CC(C)C)NC(=O)[C@H]([C@@H](C)CC)NC(=O)[C@H](CCCCN)NC(=O)[C@@H]1CCCN1C3=O)C(=O)N1CCC[C@H]1C(=O)NCC(=O)N[C@@H](C)C(=O)N2 [MCo-PMI] was tested. Which EC50 (p53 level) did it give?
A: ~20 µM

Q: What about the EC50 (Hdm2 level) of the same compound?
A: ~15 µM

Q: What about the EC50 (p21 level) of the same compound?
A: ~30 µM

Q: What about the EC50 (HdmX level) of the same compound?
A: ~30 µM

Q: What about the EC50 (HCT116 p53+/+ cells) of the same compound?
A: ~2 µM
